Literature values, collected in patent US6326139A (priority 1997, dated 2001).

Columns and labels:
[1] = vs physostigmine; cited from earlier work
CNS = conditions: REM sleep; cited from earlier work

For `CCN(C)C(=O)Oc1cccc([C@H](C)N(C)C)c1` [SDZ ENA-713], the “central selectivity and duration of action” value [1] is listed as “greater central selectivity and longer duration of action than physostigmine” and the “frequency of rapid eye movements” value (CNS) is listed as “increase the frequency of rapid eye movements during REM sleep”.
